“Also recorded” adds a separate entry of the source.
Settings: capsule shells stored without contact over 95 parts PEG 6000 + 5 parts scavenger, 60°C for a week; 2nd solution of JP12 (37 °C), observed after 5 to 6 minutes

thiamine nitrate
Solubility: completely prevented the decrease of the solubility; also recorded: soluble rapidly

Source: patent publication EP0695544B1, “Hard gelatin capsules resistant to denaturation and the production thereof” (SHIONOGI & CO., LTD., priority 1994, dated 1996)
